pIC50: −log10 of the molar value.
Key:
[1] = biological target: Hck (Homo sapiens, UniProt P08631, Q523E/Q524E/Q525I); experiment: Z′-lyte in vitro kinase assay, Hck alone; assay type: biochemical; conditions: for Hck Alone % Inhib (20 μM): 20 μM compound; for pIC50: read-out: Hck Alone IC50, 10-point concentration-response
[2] = Preliminary pharmacokinetics in C3H mice; conditions: p.o., 10 mg/kg

The chains behind the UniProt entries cited, without tags or fusion partners. A line that says so, or that is headed by a name, gives the form on record, which may keep a tag or linker. Residues count along the entry.
UniProt P08631, 78-522 with tags or gaps limits assumed: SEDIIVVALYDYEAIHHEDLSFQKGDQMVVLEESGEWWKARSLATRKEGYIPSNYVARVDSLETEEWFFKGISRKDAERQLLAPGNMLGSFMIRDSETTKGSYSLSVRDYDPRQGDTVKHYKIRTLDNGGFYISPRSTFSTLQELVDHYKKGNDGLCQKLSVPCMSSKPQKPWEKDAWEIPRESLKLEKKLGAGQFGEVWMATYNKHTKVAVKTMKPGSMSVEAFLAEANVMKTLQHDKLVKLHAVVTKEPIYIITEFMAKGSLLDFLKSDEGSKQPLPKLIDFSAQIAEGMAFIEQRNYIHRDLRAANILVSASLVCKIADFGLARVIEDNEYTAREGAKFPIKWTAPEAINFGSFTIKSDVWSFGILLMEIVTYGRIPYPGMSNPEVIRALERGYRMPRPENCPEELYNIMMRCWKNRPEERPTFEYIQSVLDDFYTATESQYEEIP

SMILES	Hck Alone % Inhib (20 μM) [1] [%]	pIC50 [1]	% F (oral bioavailability) [2] [%]
Cc1nc2ccc3nc(NC(=O)c4ccc5c(c4)OCCO5)sc3c2s1	31.1	< 4.70	
NC(=S)n1nc(-c2ccc([N+](=O)[O-])cc2)c(N=Nc2cccc(Cl)c2)c1O			2
O=C(c1cnn(C(=O)c2cccc(S(=O)(=O)N3CCOCC3)c2)c1)c1ccccc1O	14.1	< 4.70	
NC(=S)n1nc(-c2ccc([N+](=O)[O-])cc2)c(N=Nc2ccc(Cl)cc2)c1O	49.7	4.70	
COc1ccc(NC(=O)CN2C(=O)C(=C3SC(=S)N(C4CCS(=O)(=O)C4)C3=O)c3ccccc32)cc1 (stereo not drawn)	26.9	< 4.70	
